Test results as given in patent US11066414B2, “Cot modulators and methods of use thereof” (Gilead Sciences, Inc., priority 2015, dated 2021).
Read-outs that look alike come from different tables or passages of the source.

By UniProt entry, the sequences of proteins in these tests, tags left out. Residues count along the entry.
UniProt P41279, 30-397 limits assumed: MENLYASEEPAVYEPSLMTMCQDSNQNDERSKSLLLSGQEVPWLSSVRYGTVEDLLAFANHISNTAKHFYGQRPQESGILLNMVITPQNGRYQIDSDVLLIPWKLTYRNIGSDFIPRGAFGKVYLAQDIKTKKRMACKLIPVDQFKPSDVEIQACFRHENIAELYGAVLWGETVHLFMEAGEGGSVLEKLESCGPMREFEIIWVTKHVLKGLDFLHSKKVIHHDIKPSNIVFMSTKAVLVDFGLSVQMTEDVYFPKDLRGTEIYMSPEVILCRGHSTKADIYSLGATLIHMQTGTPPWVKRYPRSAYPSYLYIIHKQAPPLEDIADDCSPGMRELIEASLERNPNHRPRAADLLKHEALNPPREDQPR

How the values were obtained:
TNFα = test: Cot Monocyte TNFα Cell Based Assay; details: read-out: EC50 TNF, LPS-stimulated human monocytes
Human Cot = Human Cot (Homo sapiens (Human), UniProt P41279); test: High Throughput Cot Biochemical Assay; details: read-out: IC50 HTRF
[1] = Cot HTRF (TR-FRET) biochemical assay
[2] = TNFα TR-FRET, tested form: TFA salt

| Compound | EC50 (TNFα; TNFα) | IC50 (Human Cot; [1]) | EC50 (TNFα; [2]) | IC50 (Human Cot; Cot HTRF (TR-FRET KinEASE) biochemical assay, 400 μM ATP, tested form: TFA salt) |
| --- | --- | --- | --- | --- |
| N#Cc1cnc2c(Cl)cc(N[C@H](c3cn(C4COC4)nn3)c3cnc(Cl)cc3Cl)cc2c1Nc1ccc(F)c(Cl)c1 | 666 nM | 86 nM |  |  |
| CC(C)(C)N1CCC(n2cc([C@@H](Nc3cc(Cl)c4ncc(C#N)c(Nc5ccc(F)c(Cl)c5)c4c3)c3cnc(Cl)cc3Cl)nn2)CC1 | 3750 nM |  |  |  |
| [2H][C@](Nc1cc(Cl)c2ncc(C#N)c(NCC(C)(C)C)c2c1)(c1cn(C2(C(F)F)CC2)nn1)c1cccnc1C | 87 nM | 2 nM |  |  |
| [2H][C@@](Nc1cc(Cl)c2ncc(C#N)c(N[C@H](CC)c3ccccc3)c2c1)(c1c[nH]nn1)c1cccnc1C | 221 nM | 4 nM |  |  |
| [2H][C@](Nc1cc(Cl)c2ncc(C#N)c(NCC(C)(C)C)c2c1)(c1cn(C2(C(F)F)CC2)nn1)c1cccnc1Cl | 222 nM | 5 nM |  |  |
| [2H][C@@](Nc1cc(Cl)c2ncc(C#N)c(N[C@H](CC)c3ccccc3)c2c1)(c1cn(C2CC2)nn1)c1cccnc1C | 77 nM | 2 nM |  |  |
| N#Cc1cnc2c(Cl)cc(N[C@H](c3cn(CCO)nn3)c3cc(Br)cnc3Cl)cc2c1Nc1ccc(F)c(Cl)c1 |  | 15 nM |  |  |
| CC(C)n1cc([C@@H](Nc2cc(Cl)c3ncc(C#N)c(Nc4ccc(F)c(Cl)c4)c3c2)c2ccc(Cl)nc2Cl)nn1 | 565 nM |  |  |  |
| CC(C)(C)CNc1c(C#N)cnc2c(Cl)cc(N[C@H](c3cn(C(C)(C)C(F)F)nn3)c3cccc4cnccc34)cc12 | 283 nM | 35 nM |  |  |
| CC(C)(C)CNc1c(C#N)cnc2c(C#N)cc(N[C@H](c3cn(C45CC(C4)C5)nn3)c3cccc4cnccc34)cc12 | 14 nM |  |  |  |
| CC(C)(C)OC(=O)N1CCC(n2cc([C@@H](Nc3cc(Cl)c4ncc(C#N)c(Nc5ccc(F)c(Cl)c5)c4c3)c3cccs3)nn2)CC1 |  | 282 nM |  |  |
| [2H][C@@](Nc1cc(Cl)c2ncc(C#N)c(Nc3cnc(F)c(F)c3)c2c1)(c1cn(C2CC2)nn1)c1cccnc1C | 174 nM | 5 nM |  |  |
| [2H][C@](Nc1cc(Cl)c2ncc(C#N)c(NCC(C)(C)C)c2c1)(c1cn(C2(C(F)F)CC2)nn1)c1cccnc1F | 277 nM | 5 nM |  |  |
| CC(C)(C)CNc1c(C#N)cnc2c(Cl)cc(N[C@H](c3cn(C45CC(C4)C5)nn3)c3cccc4ncccc34)cc12 | 39 nM |  |  |  |
| CC(C)(C)CNc1c(C#N)cnc2c(C#N)cc(N[C@H](c3cn(C(C)(C)C(F)F)nn3)c3cccc4ncccc34)cc12 |  |  | 56 nM |  |

Next, values leading:

| EC50 (TNFα; TNFα) | IC50 (Human Cot; [1]) | EC50 (TNFα; [2]) | IC50 (Human Cot; Cot HTRF (TR-FRET KinEASE) biochemical assay, 400 μM ATP, tested form: TFA salt) | Compound |
| --- | --- | --- | --- | --- |
|  |  | 169 nM | 10 nM | Cc1nc(F)ccc1[C@H](Nc1cc(Cl)c2ncc(C#N)c(NCC(C)(C)C)c2c1)c1nnn2c1CCCC2 |
| 1100 nM |  |  |  | CC(C)n1cc([C@@H](Nc2cc(Cl)c3ncc(C#N)c(Nc4ccc(F)c(Cl)c4)c3c2)c2cnc(Cl)cc2Cl)nn1 |
| 147 nM | 6 nM |  |  | [2H][C@](Nc1cc(Cl)c2ncc(C#N)c(N[C@H](CCO)c3ccccc3)c2c1)(c1cccnc1)c1cn(C2CC2)nn1 |
| 101 nM | 14 nM |  |  | CC(C)(C)CNc1c(C#N)cnc2c(Cl)cc(N[C@H](c3cn(C(C)(C)CF)nn3)c3cccc4cnccc34)cc12 |
| 56 nM | 2 nM |  |  | [2H][C@@](Nc1cc(Cl)c2ncc(C#N)c(N[C@H](CC)c3ccccc3)c2c1)(c1cn(C2CC2)nn1)c1ccc(F)nc1C |
| 1140 nM |  |  |  | [2H][C@@](Nc1cc(Cl)c2ncc(C#N)c(Nc3cnc(F)c(F)c3)c2c1)(c1c[nH]nn1)c1cccnc1C |
| 37 nM | 2 nM |  |  | [2H][C@](Nc1cc(Cl)c2ncc(C#N)c(N[C@H](CCC#N)c3ccccc3)c2c1)(c1ccc(F)nc1)c1cn(C2CC2)nn1 |
| 590 nM |  |  |  | [2H][C@](Nc1cc(Cl)c2ncc(C#N)c(N[C@@H](CCC#N)c3ccccc3)c2c1)(c1ccc(F)nc1)c1cn(C2CC2)nn1 |
| 61 nM |  |  |  | CC(C)(C)CNc1c(C#N)cnc2c(C#N)cc(N[C@H](c3cn(C(C)(C)C(F)F)nn3)c3cccc4cnccc34)cc12 |
| 11 nM |  |  |  | CC(C)(C)CNc1c(C#N)cnc2c(C#N)cc(N[C@H](c3cn(C45CC(C4)C5)nn3)c3cccc4ncccc34)cc12 |
| 39 nM |  |  |  | CC(C)(C)CNc1c(C#N)cnc2c(Cl)cc(N[C@H](c3cn(C45CC(C4)C5)nn3)c3cccc4cnccc34)cc12 |
| 97 nM | 4 nM |  |  | [2H][C@@](Nc1cc(Cl)c2ncc(C#N)c(NCC(C)(C)C)c2c1)(c1cn(C2CC2)nn1)c1cccnc1C |
